Reported melting point values for industrial, environmental and drug-like chemicals

Source: data files of OPERA 2.9 (Mansouri et al.), github.com/kmansouri/OPERA.

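These are experimental values that the OPERA curators gathered from public databases to train and test their QSAR models. The files give a single number for a compound and property, which may rest on several reports. Method and conditions are not stated for these values. A value may pool stereoisomers or salt forms, and the file does not say which form was measured. Some entries may be limits or estimates that an upstream database listed as plain numbers.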

The melting point is given in degrees Celsius.
Cells with "n/a" have no entry in this list.

| MP (°C) | compound | name |
|---|---|---|
| 180 | CCOc1ccc(NC(=S)NN)cc1 | N-(4-ethoxyphenyl)hydrazinecarbothioamide |
| 45.5 | Cc1ccc(S(=O)(=O)OC2CCCCC2)cc1 | Benzenesulfonic acid, 4-methyl-, cyclohexyl ester |
| 115 | Cl.NC(=O)Nc1cccc(N)c1 | (3-Aminophenyl)uronium chloride |
| -13 | CCCCC(CC)CNc1ccc2ccccc2c1N=Nc1ccc(N=Nc2ccccc2C)cc1C (stereo not given) | n/a |
| 154 | NC(NO)=C1C=CC(=O)C=C1 | 4,N-Dihydroxy-benzamidine |
| 5 | Fc1ccc(C(CCCCl)c2ccc(F)cc2)cc1 | 1,1'-(4-Chlorobutylidene)bis(4-fluorobenzene) |
| 216 | Cc1sc2ncnc(SCC(=O)O)c2c1C | n/a |
| 238 | COc1ccc(C2(c3ccc(OC)cc3)NC(=O)NC2=O)cc1 | 5,5-Bis(4-methoxyphenyl)imidazolidine-2,4-dione |
| 65 | N#Cc1c(Cl)nsc1Cl | 3,5-Dichloroisothiazole-4-carbonitrile |
| 190 | O=c1ccn(-c2ccc(Cl)cc2)[nH]1 | 1-(4-Chlorophenyl)-3-hydroxypyrazole |
| 65 | OCCNc1ccccn1 | 2-(pyridin-2-ylamino)ethanol |
| 83 | O=C(CCl)NCCc1c[nH]c2ccccc12 | 2-Chloro-N-[2-(1H-indol-3-yl)ethyl]acetamide |
| 140 | Cc1cc(C=O)c(C)[nH]1 | 2,5-dimethyl-1H-pyrrole-3-carbaldehyde |
| 220 | CC(=O)c1ccc(-c2ccc(C(=O)O)o2)cc1 | 5-(4-acetylphenyl)-2-furoic acid |
| 197.5 | CCC(N)C(O)C(F)(F)C(F)(F)C(F)(F)F.Cl (stereo not given) | n/a |
| 59 | O=C(O)CCCc1ccc(Cl)cc1 | 4-(4-Chlorophenyl)butyric acid |
| 140 | Cc1ccc(Br)cc1S(N)(=O)=O | 5-bromo-2-methylbenzenesulfonamide |
| 158 | CNc1ccncc1[N+](=O)[O-] | n-methyl-3-nitropyridin-4-amine |
| 78.5 | Clc1cc(N2CCCCC2)ncn1 | 4-chloro-6-piperidin-1-ylpyrimidine |
| 75 | Cc1cc(C)n(CCO)n1 | 2-(3,5-Dimethyl-1H-pyrazol-1-yl)ethan-1-ol |
| 163 | O=C(O)COc1ccc(Cl)c2ccccc12 | [(4-chloro-1-naphthyl)oxy]acetic acid |
| 200 | CC(C)(C)N(NC(=O)c1ccccc1)C(=O)c1ccc(C#N)cc1 | N'-Benzoyl-4-cyano-N-(2-methyl-2-propanyl)benzohydrazide |
| 108 | Nc1cccc(S(=O)(=O)Nc2cccc(Cl)c2)c1 | 3-Amino-N-(3-chlorophenyl)benzene-1-sulfonamide |
| 168 | COc1cc(C=O)cc(Cl)c1OCC(N)=O | 2-(2-chloro-4-formyl-6-methoxyphenoxy)acetamide |
| 169 | O=C(O)c1c(Cl)ccc(S(=O)(=O)Cl)c1Cl | 2,6-dichloro-3-chlorosulfonyl-benzoic Acid |
| 207 | Nc1ccc(S(N)(=O)=O)cc1[N+](=O)[O-] | 4-amino-3-nitrobenzenesulfonamide |
| 169.8 | CC1=NN(c2ccccc2)C(=O)C1N=Nc1ccc(C)cc1C (stereo not given) | C.I. Solvent Yellow 18 |
| 109 | O=C(O)c1c(F)ccc(S(=O)(=O)Cl)c1F | 3-Chlorosulfonyl-2,6-difluoro-benzoic acid |
| 100 | Nc1ccccc1N1CCCC1=O | 1-(2-aminophenyl)pyrrolidin-2-one |
| 175 | O=S(=O)(c1ccc2c(c1)CCN2)N1CCOCC1 | 5-(morpholin-4-ylsulfonyl)indoline |
| 282 | Nc1ccc(-c2cc3ccccc3o2)cc1 | 4-(1-benzofuran-2-yl)aniline |
| 162 | Cc1ccc(C)c(NC(=O)CCl)c1 | 2-chloro-N-(2,5-dimethylphenyl)acetamide |

A selection of 5 entries from above:

| compound | name | MP (°C) |
|---|---|---|
| N#Cc1c(Cl)nsc1Cl | 3,5-Dichloroisothiazole-4-carbonitrile | 65 |
| Cc1ccc(Br)cc1S(N)(=O)=O | 5-bromo-2-methylbenzenesulfonamide | 140 |
| CC1=NN(c2ccccc2)C(=O)C1N=Nc1ccc(C)cc1C (stereo not given) | C.I. Solvent Yellow 18 | 169.8 |
| CCC(N)C(O)C(F)(F)C(F)(F)C(F)(F)F.Cl (stereo not given) | n/a | 197.5 |
| O=c1ccn(-c2ccc(Cl)cc2)[nH]1 | 1-(4-Chlorophenyl)-3-hydroxypyrazole | 190 |